# Assay results as given in the NIST ThermoML archive (doi:10.1021/je900022k).
# Numbers after ± are expanded uncertainties.
# Settings: Crystal; visual observation
smiles,measurement,value
Cl.NCCCC[C@H](N)C(=O)O [L-lysine monohydrochloride],Normal melting temperature,263.00 ± 1 °C
